Target: CYP3A4 (Homo sapiens, UniProt P08684, S18F)
Settings: 260 μM Carbamazepine alone, 1 μM CYP3A4; eq 6

Sequences of proteins named here, by UniProt entry; tags and fusion partners are left off. A change or cut given only in a name is not applied to a line headed by its entry.
UniProt P08684: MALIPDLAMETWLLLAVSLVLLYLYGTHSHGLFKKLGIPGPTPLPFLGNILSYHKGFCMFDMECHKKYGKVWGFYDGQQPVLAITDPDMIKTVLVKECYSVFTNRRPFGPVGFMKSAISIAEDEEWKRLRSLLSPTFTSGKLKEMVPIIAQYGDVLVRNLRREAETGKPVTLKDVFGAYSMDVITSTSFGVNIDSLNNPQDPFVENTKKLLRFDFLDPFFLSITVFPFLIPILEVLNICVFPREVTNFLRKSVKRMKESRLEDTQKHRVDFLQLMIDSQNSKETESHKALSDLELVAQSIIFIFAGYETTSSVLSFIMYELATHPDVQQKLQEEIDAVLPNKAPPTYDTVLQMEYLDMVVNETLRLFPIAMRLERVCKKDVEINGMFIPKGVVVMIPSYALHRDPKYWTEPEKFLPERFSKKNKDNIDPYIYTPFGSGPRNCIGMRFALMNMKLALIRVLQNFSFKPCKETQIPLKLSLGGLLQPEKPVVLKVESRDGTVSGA

NC(=O)N1c2ccccc2C=Cc2ccccc21 [CBZ, carbamazepine]
rapp, proton peak aa′: 7.88±0.45 Å

Source: article PMC3828125 (Biochemistry, 2011)
